Data taken from patent US20200138825A1, “METHOD OF TREATING MALIGNANT RHABDOID TUMOR OF THE OVARY (MRTO)/SMALL CELL CANCER OF THE OVARY OF THE HYPERCALCEMIC TYPE(SCCOHT) WITH AN EZH2 INHIBITOR” (Epizyme, Inc., priority 2015, published 2020).

Tested on: EZH2
Assay: Selectivity and potency for EZH2 versus other histone methyltransferases (by Ki)
Type: biochemical

Compound: CCN(c1cc(-c2ccc(CN3CCOCC3)cc2)cc(C(=O)NCc2c(C)cc(C)[nH]c2=O)c1C)C1CCOCC1 [tazemetostat]
- targeting both WT and mutant EZH2: potent
